From PMC8565993 (International journal for parasitology, 2020)

Key:
CpCDPK1 = target: T1, CpCDPK1 (Cryptosporidium parvum, UniProt A3FQ16); format: biochemical; conditions: read-out: CpCDPK1 IC50
T1 sequence (A3FQ16 1-538): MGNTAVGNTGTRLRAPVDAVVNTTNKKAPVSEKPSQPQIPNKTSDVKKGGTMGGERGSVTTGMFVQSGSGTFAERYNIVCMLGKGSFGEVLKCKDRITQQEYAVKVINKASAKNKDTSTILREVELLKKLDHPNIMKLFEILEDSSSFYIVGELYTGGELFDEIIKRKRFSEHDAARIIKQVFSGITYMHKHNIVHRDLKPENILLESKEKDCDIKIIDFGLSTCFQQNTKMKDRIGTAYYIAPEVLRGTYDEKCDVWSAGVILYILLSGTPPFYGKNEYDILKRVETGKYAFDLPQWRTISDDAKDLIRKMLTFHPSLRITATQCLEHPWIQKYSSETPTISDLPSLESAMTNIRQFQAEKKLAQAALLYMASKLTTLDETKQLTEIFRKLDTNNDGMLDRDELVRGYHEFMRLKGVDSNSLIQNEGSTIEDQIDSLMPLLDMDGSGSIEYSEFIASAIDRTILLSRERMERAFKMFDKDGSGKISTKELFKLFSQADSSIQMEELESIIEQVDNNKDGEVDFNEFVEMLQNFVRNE

Human Src = Human Src (Homo sapiens, UniProt P12931); assay: Human Src kinase inhibition; format: biochemical; conditions: read-out: Human Src IC50

`CCOc1ccc2cc(-c3nn(CC4CCN(C)CC4)c4ncnc(N)c34)ccc2c1` [BKI-1294] showed an IC50 (CpCDPK1) of 1 nM.

In the case of `CCOc1ccc2cc(-c3nn(C(C)(C)C)c(N)c3C(N)=O)cnc2c1` [BKI-1517], the IC50 (Human Src) is reported as greater than 30000 nM.
